Results from patent US20260103465A1, “GLYCOGEN SYNTHASE KINASE 3 INHIBITORS AND USES THEREOF” (The Broad Institute, Inc., priority 2023, published 2026).

Protein sequences, listed by entry. Tags and fused reporters are not part of them.
UniProt P49841, whole entry: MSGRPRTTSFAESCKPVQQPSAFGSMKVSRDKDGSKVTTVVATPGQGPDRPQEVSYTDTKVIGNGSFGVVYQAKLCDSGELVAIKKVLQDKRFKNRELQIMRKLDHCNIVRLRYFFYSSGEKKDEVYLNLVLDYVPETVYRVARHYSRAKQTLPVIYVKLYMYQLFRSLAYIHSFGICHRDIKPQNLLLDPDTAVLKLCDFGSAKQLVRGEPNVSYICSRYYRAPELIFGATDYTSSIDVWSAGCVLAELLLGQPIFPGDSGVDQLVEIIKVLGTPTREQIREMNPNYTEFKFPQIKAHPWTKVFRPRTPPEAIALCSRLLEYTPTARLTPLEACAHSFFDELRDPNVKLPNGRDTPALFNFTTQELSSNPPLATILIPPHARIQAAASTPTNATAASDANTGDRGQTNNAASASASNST
UniProt P49840, whole entry: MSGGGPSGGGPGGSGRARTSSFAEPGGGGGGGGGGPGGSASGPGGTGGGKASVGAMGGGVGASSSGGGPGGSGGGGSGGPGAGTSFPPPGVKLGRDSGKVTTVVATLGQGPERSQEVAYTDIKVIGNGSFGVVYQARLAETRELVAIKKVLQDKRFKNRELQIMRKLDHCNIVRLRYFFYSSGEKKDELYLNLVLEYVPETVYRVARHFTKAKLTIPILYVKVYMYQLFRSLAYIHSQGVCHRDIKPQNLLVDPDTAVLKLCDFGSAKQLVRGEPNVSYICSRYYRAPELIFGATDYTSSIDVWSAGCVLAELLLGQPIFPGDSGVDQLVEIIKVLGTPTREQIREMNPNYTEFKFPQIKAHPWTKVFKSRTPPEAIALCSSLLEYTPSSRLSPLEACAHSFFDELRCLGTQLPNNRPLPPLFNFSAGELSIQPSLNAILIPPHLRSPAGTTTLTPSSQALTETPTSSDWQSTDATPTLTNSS

Experiments:
[1] = target: GSK3b (GST-full length GSK3b) (Homo sapiens, UniProt P49841); test: GSK3b TR-FRET kinase inhibition assay; details: read-out: GSK3b TR-FRET 1 mM ATP Average IC50, Table 3
Method: (§1) TR-FRET assay was performed in a white, 384 well, low volume, flat bottom plate (Grenier). After a 30 minute preincubation in assay buffer with the indicated concentration of compound, the kinase activity was initiated by the addition of the substrates. 1 nM GSK3a (GST-full length GSK3a [SignalChem G08-10G]) or 1 nM GSK3b (GST-full length GSK3b: [SignalChem G08-9G]) were then incubated at ambient temperature for 100 minutes in 10 μl of 50 mM Tris, pH 7.5, 20 mM MgCl2, 0.05 mM DTT, 100 μg/ml BSA and 1% DMSO, with 200 nM biotinylated peptide substrate (biotinylated and S645 phosphorylated glycogen synthase 631-650) and ATP (e.g., at 2 μM, 4 μM, 10 μM, 100 μM, or 1 mM). The kinase activity was quenched with 2 μl of 250 mM EDTA. A 10 μl volume of 40 nM Strepavidin-d2, 2 nM […] antibody in TR-FRET Detection Buffer (Invitrogen) was then added. After 60 min at room temperature the plate was read on Envision plate reader using Ex: 340 nm, Em: 615 nm and […]. The normalized 665/615 Signal ratio versus log compound concentration was analyzed by XLFIT to yield IC50 values.

[2] = target: GSK3a (GST-full length GSK3a) (Homo sapiens, UniProt P49840); test: GSK3a TR-FRET kinase inhibition assay; details: read-out: GSK3a TR-FRET 1 mM ATP Average IC50, Table 3
Method: as §1

IC50 [1]: 5 to 20 µM
IC50 [2]: 5 to 20 µM
Compound: COc1cncc(F)c1-c1cccc(C2(C)C3=C(CC(C)(C)CC3=O)Nc3ncc(CC(C)(C)C)cc32)c1 (single isomer, unassigned)
